Data: patent EP4847505A1, “4-METHYLSULFONYL-SUBSTITUTED PIPERIDINE UREA COMPOUNDS” (dated 2026)

The chains behind the UniProt entries cited, without tags or fusion partners.
UniProt Q9BE39, whole entry: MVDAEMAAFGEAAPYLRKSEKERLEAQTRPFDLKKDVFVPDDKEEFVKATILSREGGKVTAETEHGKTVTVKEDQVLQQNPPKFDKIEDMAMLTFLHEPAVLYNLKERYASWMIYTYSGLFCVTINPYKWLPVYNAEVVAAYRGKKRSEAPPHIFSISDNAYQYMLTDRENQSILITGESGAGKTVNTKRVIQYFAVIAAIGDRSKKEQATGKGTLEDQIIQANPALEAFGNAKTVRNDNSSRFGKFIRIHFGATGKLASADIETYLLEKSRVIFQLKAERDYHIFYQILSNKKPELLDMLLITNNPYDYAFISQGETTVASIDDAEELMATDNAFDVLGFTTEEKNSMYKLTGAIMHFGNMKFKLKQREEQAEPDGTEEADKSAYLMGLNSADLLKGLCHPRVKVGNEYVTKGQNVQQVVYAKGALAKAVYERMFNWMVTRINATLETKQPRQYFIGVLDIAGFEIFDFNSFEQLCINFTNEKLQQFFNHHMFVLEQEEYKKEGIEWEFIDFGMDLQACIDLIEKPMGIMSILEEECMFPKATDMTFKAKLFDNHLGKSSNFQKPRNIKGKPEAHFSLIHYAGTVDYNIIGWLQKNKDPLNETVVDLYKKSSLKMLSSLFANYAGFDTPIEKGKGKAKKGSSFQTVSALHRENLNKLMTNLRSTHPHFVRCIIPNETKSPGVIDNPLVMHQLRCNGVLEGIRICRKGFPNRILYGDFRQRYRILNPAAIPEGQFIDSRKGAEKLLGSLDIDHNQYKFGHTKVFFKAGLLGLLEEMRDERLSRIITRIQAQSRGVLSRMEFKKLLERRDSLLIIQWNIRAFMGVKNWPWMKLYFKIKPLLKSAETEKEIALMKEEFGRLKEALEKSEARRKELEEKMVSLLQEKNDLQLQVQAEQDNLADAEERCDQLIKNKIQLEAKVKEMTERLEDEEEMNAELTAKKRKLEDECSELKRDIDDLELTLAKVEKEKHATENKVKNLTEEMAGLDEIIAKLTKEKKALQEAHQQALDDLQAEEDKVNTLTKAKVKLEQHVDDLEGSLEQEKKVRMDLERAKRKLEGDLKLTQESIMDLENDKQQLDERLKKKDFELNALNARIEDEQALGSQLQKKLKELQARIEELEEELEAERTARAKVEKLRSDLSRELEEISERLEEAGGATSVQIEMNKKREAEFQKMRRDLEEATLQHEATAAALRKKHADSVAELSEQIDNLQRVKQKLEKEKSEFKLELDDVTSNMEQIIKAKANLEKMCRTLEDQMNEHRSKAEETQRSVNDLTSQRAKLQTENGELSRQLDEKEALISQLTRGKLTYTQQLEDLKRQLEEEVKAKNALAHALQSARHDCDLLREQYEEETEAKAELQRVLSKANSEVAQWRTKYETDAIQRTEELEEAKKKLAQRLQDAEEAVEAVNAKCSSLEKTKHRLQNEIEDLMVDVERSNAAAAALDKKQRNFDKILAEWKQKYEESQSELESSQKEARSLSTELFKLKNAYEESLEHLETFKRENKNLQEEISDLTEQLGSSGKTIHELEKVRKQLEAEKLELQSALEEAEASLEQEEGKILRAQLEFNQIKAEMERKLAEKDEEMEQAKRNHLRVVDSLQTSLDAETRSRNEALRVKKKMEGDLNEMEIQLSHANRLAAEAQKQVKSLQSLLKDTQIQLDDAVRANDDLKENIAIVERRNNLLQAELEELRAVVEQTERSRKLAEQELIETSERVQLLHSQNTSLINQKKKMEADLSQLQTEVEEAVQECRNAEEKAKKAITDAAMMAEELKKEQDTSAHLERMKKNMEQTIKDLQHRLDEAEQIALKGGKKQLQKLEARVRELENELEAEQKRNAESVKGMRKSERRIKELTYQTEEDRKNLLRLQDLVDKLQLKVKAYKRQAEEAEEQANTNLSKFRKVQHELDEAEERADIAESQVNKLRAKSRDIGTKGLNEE
UniProt Q3SZE5, whole entry partner: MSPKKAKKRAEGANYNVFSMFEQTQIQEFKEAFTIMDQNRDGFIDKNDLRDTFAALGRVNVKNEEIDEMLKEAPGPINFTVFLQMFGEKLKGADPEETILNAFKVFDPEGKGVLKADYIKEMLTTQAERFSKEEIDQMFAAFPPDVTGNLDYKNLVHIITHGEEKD
UniProt P85100, whole entry partner: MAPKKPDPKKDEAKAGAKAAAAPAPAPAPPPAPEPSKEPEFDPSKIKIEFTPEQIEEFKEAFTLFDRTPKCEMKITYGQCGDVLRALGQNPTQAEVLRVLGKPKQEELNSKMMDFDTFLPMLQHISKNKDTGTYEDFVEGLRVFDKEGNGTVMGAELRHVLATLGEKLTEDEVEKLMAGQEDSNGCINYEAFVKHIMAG

The compounds below were run against bovine cardiac myosin (Bos taurus, UniProt Q9BE39) (assay: Myosin activation assay (PK/LDH-coupled ATPase, bovine cardiac myofibrils)). Conditions: concentration at which the total response is increased by twenty percent.
`Cc1ccc(NC(=O)N2CCC(C(C)(C)S(=O)(=O)c3cccc(F)c3)CC2)nn1` was tested, and the “Myosin Activation (AC20)” value was “+ (+ represents myosin activation value AC20 > 5 µM)”. For `Cn1nc(C(F)(F)F)cc1S(=O)(=O)C(C)(F)C1CCN(C(=O)Nc2ccnnc2)CC1` (centres unmarked), the “Myosin Activation (AC20)” value was “+++ (+++ represents myosin activation value AC20 < 2 µM)”. For `COc1ccc(S(=O)(=O)[C@](C)(F)C2CCN(C(=O)Nc3ccon3)CC2)cn1`, the “Myosin Activation (AC20)” value was “+ (+ represents myosin activation value AC20 > 5 µM)”. `C[C@@](F)(C1CCN(C(=O)Nc2ccc(C#N)nc2)CC1)S(=O)(=O)c1cccc(F)c1` was tested, and the “Myosin Activation (AC20)” value was “+ (+ represents myosin activation value AC20 > 5 µM)”. With “4-(1-Fluoro-1-((3-fluorophenyl)sulfonyl)ethyl)-N-(1-methyl-1H-pyrazol-4-yl)piperidine-1-carboxamide” the “Myosin Activation (AC20)” value was “+ (+ represents myosin activation value AC20 > 5 µM)”. `Cn1cnc(S(=O)(=O)C2(C3CCN(C(=O)Nc4ccnnc4)CC3)CCC2)c1` was tested, and the “Myosin Activation (AC20)” value was “+ (+ represents myosin activation value AC20 > 5 µM)”. For `Cn1cnc(S(=O)(=O)C(C)(C)C2CCN(C(=O)Nc3ccnnc3)CC2)c1`, the “Myosin Activation (AC20)” value was “+ (+ represents myosin activation value AC20 > 5 µM)”. With `Cn1cc(S(=O)(=O)C(C)(C)C2CCN(C(=O)Nc3ccc(F)nc3)CC2)c(C(F)F)n1` the “Myosin Activation (AC20)” value was “++ (++ represents myosin activation value AC20 from 2 µM - 5 µM)”. `Cc1cc(NC(=O)N2CCC([C@](C)(F)S(=O)(=O)c3cc(C(F)(F)F)nn3C)CC2)ccn1` was tested, and the “Myosin Activation (AC20)” value was “+++ (+++ represents myosin activation value AC20 < 2 µM)”. For `CC(C)(C1CCN(C(=O)Nc2ccncc2Cl)CC1)S(=O)(=O)c1cccc(F)c1`, the “Myosin Activation (AC20)” value was “+ (+ represents myosin activation value AC20 > 5 µM)”. With `Cc1ccc(NC(=O)N2CCC(C(C)(C)S(=O)(=O)c3cc(C(F)(F)F)nn3C)CC2)cn1` the “Myosin Activation (AC20)” value was “++ (++ represents myosin activation value AC20 from 2 µM - 5 µM)”. With `Cn1nccc1S(=O)(=O)C(C)(C)C1CCN(C(=O)Nc2ccc(F)nc2)CC1` the “Myosin Activation (AC20)” value was “+ (+ represents myosin activation value AC20 > 5 µM)”. `CC(C)(C1CCN(C(=O)Nc2ccnnc2)CC1)S(=O)(=O)c1ccc2ccnn2c1` was tested, and the “Myosin Activation (AC20)” value was “+++ (+++ represents myosin activation value AC20 < 2 µM)”. In the case of `O=C(Nc1ccns1)N1CCC(C2(S(=O)(=O)c3cc(F)cc(F)c3)CC2)CC1`, the “Myosin Activation (AC20)” value is reported as “+++ (+++ represents myosin activation value AC20 < 2 µM)”. For `Cn1cc(S(=O)(=O)C(C)(C)C2CCN(C(=O)Nc3ccnc(F)c3)CC2)c(C(F)F)n1`, the “Myosin Activation (AC20)” value was “+++ (+++ represents myosin activation value AC20 < 2 µM)”. In the case of `Cn1nc(Cl)cc1S(=O)(=O)C(C)(C)C1CCN(C(=O)Nc2ccc(F)nc2)CC1`, the “Myosin Activation (AC20)” value is reported as “+++ (+++ represents myosin activation value AC20 < 2 µM)”. `Cn1nc(C(F)F)cc1S(=O)(=O)C(C)(F)C1CCN(C(=O)Nc2ccc(F)nc2)CC1` (centres unmarked) was tested, and the “Myosin Activation (AC20)” value was “+ (+ represents myosin activation value AC20 > 5 µM)”. `Cc1ccc(NC(=O)N2CCC(C(C)(F)S(=O)(=O)c3cn(C)nc3C(F)(F)F)CC2)cn1` (centres unmarked) was tested, and the “Myosin Activation (AC20)” value was “+ (+ represents myosin activation value AC20 > 5 µM)”. For `CC(C)(C1CCN(C(=O)Nc2ccon2)CC1)S(=O)(=O)c1ccc(C(F)(F)F)nc1`, the “Myosin Activation (AC20)” value was “+ (+ represents myosin activation value AC20 > 5 µM)”. In the case of `Cc1ccccc1S(=O)(=O)CC1CCN(C(=O)Nc2ccncc2)CC1`, the “Myosin Activation (AC20)” value is reported as “+ (+ represents myosin activation value AC20 > 5 µM)”. In the case of `O=C(Nc1ccns1)N1CCC(C2(S(=O)(=O)c3cccc(F)c3)CC2)CC1`, the “Myosin Activation (AC20)” value is reported as “+++ (+++ represents myosin activation value AC20 < 2 µM)”. In the case of `Cn1cc(S(=O)(=O)C(C)(F)C2CCN(C(=O)Nc3ccnc(F)c3)CC2)c(C(F)(F)F)n1` (centres unmarked), the “Myosin Activation (AC20)” value is reported as “++ (++ represents myosin activation value AC20 from 2 µM - 5 µM)”. For `Cn1cc(S(=O)(=O)[C@@](C)(F)C2CCN(C(=O)Nc3ccc(C(N)=O)nc3)CC2)c(C(F)F)n1`, the “Myosin Activation (AC20)” value was “++ (++ represents myosin activation value AC20 from 2 µM - 5 µM)”. `Cn1cc(S(=O)(=O)[C@@](C)(F)C2CCN(C(=O)Nc3cocn3)CC2)c(C(F)F)n1` was tested, and the “Myosin Activation (AC20)” value was “+ (+ represents myosin activation value AC20 > 5 µM)”. `Cn1nc(C(F)(F)F)cc1S(=O)(=O)[C@](C)(F)C1CCN(C(=O)Nc2ccnc(F)c2)CC1` was tested, and the “Myosin Activation (AC20)” value was “+ (+ represents myosin activation value AC20 > 5 µM)”. `Cn1nc(C(F)F)cc1S(=O)(=O)C(C)(F)C1CCN(C(=O)Nc2ccnnc2)CC1` (centres unmarked) was tested, and the “Myosin Activation (AC20)” value was “+++ (+++ represents myosin activation value AC20 < 2 µM)”. `Cn1cc(S(=O)(=O)C(C)(C)C2CCN(C(=O)Nc3ccnnc3)CC2)cn1` was tested, and the “Myosin Activation (AC20)” value was “+ (+ represents myosin activation value AC20 > 5 µM)”. `CC(F)(C1CCN(C(=O)Nc2nnco2)CC1)S(=O)(=O)c1cccc(F)c1` (centres unmarked) was tested, and the “Myosin Activation (AC20)” value was “+ (+ represents myosin activation value AC20 > 5 µM)”. With `C[C@H](O)c1cc(NC(=O)N2CCC([C@](C)(F)S(=O)(=O)c3cccc(F)c3)CC2)ccn1` the “Myosin Activation (AC20)” value was “+ (+ represents myosin activation value AC20 > 5 µM)”. For `CC(C)(C1CCN(C(=O)Nc2cc[nH]n2)CC1)S(=O)(=O)c1cccc(F)c1`, the “Myosin Activation (AC20)” value was “+ (+ represents myosin activation value AC20 > 5 µM)”. `N#Cc1ccccc1S(=O)(=O)C1(C2CCN(C(=O)Nc3ccnnc3)CC2)CC1` was tested, and the “Myosin Activation (AC20)” value was “++ (++ represents myosin activation value AC20 from 2 µM - 5 µM)”. In the case of `C[C@@H](O)c1cc(NC(=O)N2CCC(C(F)(F)S(=O)(=O)c3cccc(F)c3)CC2)ccn1`, the “Myosin Activation (AC20)” value is reported as “+ (+ represents myosin activation value AC20 > 5 µM)”. `CC(C)(C1CCN(C(=O)Nc2ccncc2)CC1)S(=O)(=O)c1cccc(F)c1` was tested, and the “Myosin Activation (AC20)” value was “+++ (+++ represents myosin activation value AC20 < 2 µM)”. With `Cn1nc(C(F)F)cc1S(=O)(=O)C(C)(C)C1CCN(C(=O)Nc2ccon2)CC1` the “Myosin Activation (AC20)” value was “++ (++ represents myosin activation value AC20 from 2 µM - 5 µM)”. In the case of `Cn1cc(S(=O)(=O)[C@](C)(F)C2CCN(C(=O)Nc3ccc(F)nc3)CC2)c(C(F)F)n1`, the “Myosin Activation (AC20)” value is reported as “+ (+ represents myosin activation value AC20 > 5 µM)”. In the case of `Cn1nc(C(F)(F)F)cc1S(=O)(=O)C(C)(F)C1CCN(C(=O)Nc2ccon2)CC1` (centres unmarked), the “Myosin Activation (AC20)” value is reported as “++ (++ represents myosin activation value AC20 from 2 µM - 5 µM)”. For `O=C(Nc1ccnnc1)N1CCC(C2(S(=O)(=O)c3cccc(F)c3)CCC2)CC1`, the “Myosin Activation (AC20)” value was “+++ (+++ represents myosin activation value AC20 < 2 µM)”. For `Cc1cnc(NC(=O)N2CCC(C(C)(C)S(=O)(=O)c3cccc(F)c3)CC2)cn1`, the “Myosin Activation (AC20)” value was “+ (+ represents myosin activation value AC20 > 5 µM)”. In the case of `Cn1nccc1S(=O)(=O)C(C)(C)C1CCN(C(=O)Nc2ccnc(F)c2)CC1`, the “Myosin Activation (AC20)” value is reported as “++ (++ represents myosin activation value AC20 from 2 µM - 5 µM)”. In the case of `CC(C)(C1CCN(C(=O)Nc2cnccn2)CC1)S(=O)(=O)c1cccc(F)c1`, the “Myosin Activation (AC20)” value is reported as “+ (+ represents myosin activation value AC20 > 5 µM)”. With `CC(C)(C1CCN(C(=O)Nc2cccnc2)CC1)S(=O)(=O)c1cccc(F)c1` the “Myosin Activation (AC20)” value was “++ (++ represents myosin activation value AC20 from 2 µM - 5 µM)”. For `Cn1nc(C(F)(F)F)cc1S(=O)(=O)[C@](C)(F)C1CCN(C(=O)Nc2ccon2)CC1`, the “Myosin Activation (AC20)” value was “+ (+ represents myosin activation value AC20 > 5 µM)”. `Cn1cc(S(=O)(=O)[C@@](C)(F)C2CCN(C(=O)Nc3ccc(F)nc3)CC2)c(C(F)F)n1` was tested, and the “Myosin Activation (AC20)” value was “+++ (+++ represents myosin activation value AC20 < 2 µM)”. For `Cn1nccc1S(=O)(=O)C1(C2CCN(C(=O)Nc3ccnnc3)CC2)CCC1`, the “Myosin Activation (AC20)” value was “+++ (+++ represents myosin activation value AC20 < 2 µM)”. `CC(C)(C1CCN(C(=O)Nc2ccon2)CC1)S(=O)(=O)c1ccc(C#N)cc1` was tested, and the “Myosin Activation (AC20)” value was “+ (+ represents myosin activation value AC20 > 5 µM)”. With `Cn1cc(S(=O)(=O)C(C)(C)C2CCN(C(=O)Nc3ccnnc3)CC2)c(C(F)F)n1` the “Myosin Activation (AC20)” value was “+++ (+++ represents myosin activation value AC20 < 2 µM)”. `Cn1nccc1S(=O)(=O)C(C)(F)C1CCN(C(=O)Nc2cccnc2)CC1` (centres unmarked) was tested, and the “Myosin Activation (AC20)” value was “+ (+ represents myosin activation value AC20 > 5 µM)”. For `O=C(Nc1ccnnc1)N1CCC(C(F)(F)S(=O)(=O)c2ccccc2C(F)F)CC1`, the “Myosin Activation (AC20)” value was “++ (++ represents myosin activation value AC20 from 2 µM - 5 µM)”. With `C[C@@H](O)c1cc(NC(=O)N2CCC([C@@](C)(F)S(=O)(=O)c3cn(C)nc3C(F)F)CC2)ccn1` the “Myosin Activation (AC20)” value was “+ (+ represents myosin activation value AC20 > 5 µM)”. `CC(C)(C1CCN(C(=O)Nc2ccnnc2)CC1)S(=O)(=O)c1ccccc1C(F)(F)F` was tested, and the “Myosin Activation (AC20)” value was “++ (++ represents myosin activation value AC20 from 2 µM - 5 µM)”. With `CC(C)(C1CCN(C(=O)Nc2ccns2)CC1)S(=O)(=O)c1ccccc1Cl` the “Myosin Activation (AC20)” value was “++ (++ represents myosin activation value AC20 from 2 µM - 5 µM)”. With `Cn1nccc1S(=O)(=O)C(C)(F)C1CCN(C(=O)Nc2ccon2)CC1` (centres unmarked) the “Myosin Activation (AC20)” value was “+ (+ represents myosin activation value AC20 > 5 µM)”. For `Cn1cc(S(=O)(=O)C2(C3CCN(C(=O)Nc4ccnnc4)CC3)CCC2)c(C(F)F)n1`, the “Myosin Activation (AC20)” value was “+++ (+++ represents myosin activation value AC20 < 2 µM)”. In the case of `Cc1cc(NC(=O)N2CCC(C(C)(C)S(=O)(=O)c3cn(C)nc3C(F)F)CC2)cnn1`, the “Myosin Activation (AC20)” value is reported as “+ (+ represents myosin activation value AC20 > 5 µM)”. `Cc1ccc(S(=O)(=O)C(F)(F)C2CCN(C(=O)Nc3ccnnc3)CC2)cn1` was tested, and the “Myosin Activation (AC20)” value was “++ (++ represents myosin activation value AC20 from 2 µM - 5 µM)”. For `Cc1cc(C#N)ccc1S(=O)(=O)C(C)(C)C1CCN(C(=O)Nc2ccnnc2)CC1`, the “Myosin Activation (AC20)” value was “++ (++ represents myosin activation value AC20 from 2 µM - 5 µM)”. In the case of `CC(F)(C1CCN(C(=O)Nc2ccnnc2)CC1)S(=O)(=O)c1cc(F)cc(F)c1` (centres unmarked), the “Myosin Activation (AC20)” value is reported as “+++ (+++ represents myosin activation value AC20 < 2 µM)”. For `Cn1cc(S(=O)(=O)[C@@](C)(F)C2CCN(C(=O)Nc3cc[nH]n3)CC2)c(C(F)F)n1`, the “Myosin Activation (AC20)” value was “++ (++ represents myosin activation value AC20 from 2 µM - 5 µM)”. With `CC(C)(C1CCN(C(=O)Nc2cn[nH]c2)CC1)S(=O)(=O)c1cccc(F)c1` the “Myosin Activation (AC20)” value was “++ (++ represents myosin activation value AC20 from 2 µM - 5 µM)”. In the case of `Cc1cc(S(=O)(=O)C(C)(C)C2CCN(C(=O)Nc3cnns3)CC2)n(C)n1`, the “Myosin Activation (AC20)” value is reported as “+++ (+++ represents myosin activation value AC20 < 2 µM)”. `Cn1cc(S(=O)(=O)C(C)(C)C2CCN(C(=O)Nc3cccnc3)CC2)c(C(F)F)n1` was tested, and the “Myosin Activation (AC20)” value was “+++ (+++ represents myosin activation value AC20 < 2 µM)”. With `CC(F)(C1CCN(C(=O)Nc2ccno2)CC1)S(=O)(=O)c1cccc(F)c1` (centres unmarked) the “Myosin Activation (AC20)” value was “++ (++ represents myosin activation value AC20 from 2 µM - 5 µM)”.
